In ChEMBL document CHEMBL4699582, “Discovery of OATD-01, a First-in-Class Chitinase Inhibitor as Potential New Therapeutics for Idiopathic Pulmonary Fibrosis” (J Med Chem, 2020):
Calls of active or inactive are those of the source. No cut-off for these calls is given here.

Tested on: Mus musculus
Assay: Antifibrotic activity in bleomycin-induced C57BL/6N mouse model of pulmonary fibrosis assessed as reduction in lung-fibrosis at 100 mg/kg, po qd administered from 7th day post-bleomycin challenge and measured post last dose
Assay type: functional, organism-based

SMILES: COC(=O)c1ccc2c(c1)NC(=O)/C2=C(\Nc1ccc(N(C)C(=O)CN2CCN(C)CC2)cc1)c1ccccc1
- Activity: Active
